Source: patent publication US20240408099A1, “COMBINATION […] OF KRAS G12D INHIBITORS WITH Pan ErbB FAMILY INHIBITORS” (MIRATI THERAPEUTICS, INC., priority 2021, published 2024)

How the values were obtained:
Assay type in all cases: in vivo, nude/nude mice
GP2D cells = assay: GP2D TGI MDS 200108-807 colorectal cancer xenograft, tumor volumes; conditions: for Average Tumor Volumes: 0.25 mg/kg Q3D
Description: (§1) Immunocompromised nude/nude mice are inoculated in the right hind flank with cells harboring a KRas G12D mutation. When tumor volumes reach between 200-400 mm^3 in size, the mice are divided into four to five groups of 5 mice each. The first group is administered vehicle only. […] The fourth or last groups are administered the single agent dose of the KRas G12D inhibitor using the twice daily schedule and/or the 2 sequential days followed by 5 days off schedule in combination with the single agent dose of one of the EGFR inhibitors. The treatment period varies from cell line to cell line but typically is between 15-40 days. Tumor volumes are measured using a caliper every two-three days and tumor volumes are calculated by the formula: […].
(§2) 20 to 30 nude/nude mice per study were inoculated in the right hind limb with 5×10^6 LS180 cells, AsPC-1 cells, GP2D cells, Panc 02.03 cells, SW1990 cells, or SNU-1033 cells. […] Tumor volumes, measured at pre-specified days, for the five mice per group were averaged and are reported for LS180, AsPC-1, GP2D, Panc 02.03, SW1990, and SNU-1033 in Tables 2, 3, 4, 5 and 6, respectively.
Experimental Procedures. 20 nude/nude mice were inoculated with GP2D cells in the right hind flank. When the tumors reached ˜300 mm^3 four treatment groups were established with five mice per group.

SNU-1033 cells = assay: SNU-1033 TGI 46 colorectal cancer xenograft, tumor volumes; conditions: for Average Tumor Volumes: 0.25 mg/dose Q3D (every 3rd day)
Description: as §1, §2
Experimental Procedures. 20 nude/nude mice were inoculated with SNU-1033 cells in the right hind flank. When the tumors reached ˜300 mm^3 four treatment groups were established with five mice per group.

AsPC-1 cells = assay: AsPC-1 TGI 26 pancreatic cancer xenograft, tumor volumes; conditions: for Average Tumor Volumes: 0.25 mg/dose IP Q3D (every 3rd day)
Description: as §1
Experimental Procedures. 20 nude/nude mice were inoculated with AsPC-1 cells in the right hind flank. When the tumors reached ˜200 mm^3 four treatment groups were established with five mice per group.

In the case of “Cetuximab: anti-EGFR monoclonal antibody approved for human clinical use (ImClone)”, the tumor growth inhibition (GP2D cells; 0.25 mg/dose Q3D, single agent, Day 30) is reported as 0%, the “Average Tumor Volumes” value (GP2D cells; Study Day 2) is reported as 359.72 mm^3 and the “Average Tumor Volumes” value (GP2D cells; Study Day 6) is reported as 503.18 mm^3. The “Average Tumor Volumes” value (GP2D cells; Study Day 9) was 774.9 mm^3, the “Average Tumor Volumes” value (GP2D cells; Study Day 13) was 1022.3 mm^3 and the “Average Tumor Volumes” value (GP2D cells; Study Day 16) was 1333.14 mm^3. The “Average Tumor Volumes” value (GP2D cells; Study Day 20) was 1738.12 mm^3, the “Average Tumor Volumes” value (GP2D cells; Study Day 23) was 1848.12 mm^3 and the “Average Tumor Volumes” value (GP2D cells; Study Day 27) was 2033.58 mm^3. The “Average Tumor Volumes” value (GP2D cells; Study Day 30) was 2098.62 mm^3, the “Average Tumor Volumes” value (SNU-1033 cells; Study Day 1) was 297.512 mm^3 and the “Average Tumor Volumes” value (SNU-1033 cells; Study Day 5) was 389.768 mm^3. For the same substance, the “Average Tumor Volumes” value (SNU-1033 cells; Study Day 8) was 418.018 mm^3, the “Average Tumor Volumes” value (SNU-1033 cells; Study Day 12) was 448.118 mm^3 and the “Average Tumor Volumes” value (SNU-1033 cells; Study Day 15) was 460.894 mm^3. For the same substance, the “Average Tumor Volumes” value (SNU-1033 cells; Study Day 19) was 512.09 mm^3, the “Average Tumor Volumes” value (SNU-1033 cells; Study Day 22) was 555.326 mm^3 and the “Average Tumor Volumes” value (SNU-1033 cells; Study Day 26) was 618.748 mm^3. The “Average Tumor Volumes” value (SNU-1033 cells; Study Day 29) was 636.83 mm^3, the “Average Tumor Volumes” value (SNU-1033 cells; Study Day 33) was 668.412 mm^3 and the tumor growth inhibition (SNU-1033 cells; 0.25 mg/dose Q3D, single agent, Day 33) was 67%. The “Average Tumor Volumes” value (AsPC-1 cells; Study Day 0) was 197.598 mm^3, the “Average Tumor Volumes” value (AsPC-1 cells; Study Day 4) was 261.156 mm^3 and the “Average Tumor Volumes” value (AsPC-1 cells; Study Day 7) was 303.582 mm^3. For the same substance, the “Average Tumor Volumes” value (AsPC-1 cells; Study Day 11) was 342.314 mm^3, the “Average Tumor Volumes” value (AsPC-1 cells; Study Day 14) was 402.046 mm^3 and the “Average Tumor Volumes” value (AsPC-1 cells; Study Day 18) was 441.54 mm^3. For the same substance, the “Average Tumor Volumes” value (AsPC-1 cells; Study Day 21) was 472.884 mm^3, the “Average Tumor Volumes” value (AsPC-1 cells; Study Day 25) was 533.024 mm^3 and the tumor growth inhibition (AsPC-1 cells; 0.25 mg/dose Q3D, single agent, Day 25) was 0%.
